Compound activity deposited in PubChem by National Center for Advancing Translational Sciences (NCATS).
Only some compounds are listed: those with a hit (about 3.7% of all), similar ones and a draw of the others.
Nrf2 ARE act: activates Nrf2 signaling | hit rate 0.31% among 410,000 | Potency, µM (top dose mostly 46.1 µM), without a hit: top-dose activation, hits mostly activators | AREc32 ARE-luciferase reporter (MCF7-derived line), luminescence, 24 h; also: potency is read from the fitted curve at half-maximal effect; % of control where 0% means no effect; nearly all actives have a fitted effect of over 65% in size
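Nrf2 activation is followed as ARE-luciferase induction in the AREc32 line after one day of compound treatment; luminescence is read with Steady-Glo.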
TCR activator: activators of T cell receptors; primary human leukocytes, anti-CD3, IL-2 HTRF, 48 h; Potency, µM (highest dose often 9.22 µM), inactives show top-dose activation of IL-2 secretion, usual class: activators; 330,000 tested, under 10 active; AID 504894; also: % of control where 0% means no effect
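TCR engagement came from a-CD3 beads alone, with compounds added to primary human leukocytes for 48 hr. Secreted IL-2 bridged europium cryptate- and d2-labelled anti-IL-2 antibodies, giving FRET emission at 665nm after 320nm excitation.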
A549 tox-1: kills or reduces viability of A549 cells in Nrf2 counter-screen | A549 ARE-Fluc cells, CellTiter-Fluor viability, 18-24 h | Potency, µM (series often up to 46 µM), for the others: at the highest dose activity change, negative = cytotoxicity, hits mostly inhibitors | hit rate 0.16% among 390,000 | AID 504648; also: potency is read from the fitted curve at half-maximal effect; % is scaled to controls: 0 for no effect and ±100 for the full control effect
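A549 ARE_Fluc cells in 5% FBS OPTI-MEM were exposed to compounds in concentration-response for 18-24 h at 37 deg C. Viability was read by CellTiter-Fluor fluorescence (Ex 405/Em 525) after 30 min, before the luciferase read.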
Nrf2 inh: blocks Nrf2 signaling; Potency, µM (doses to about 46 µM), inactives show at the top dose activity change, negative = inhibition, most hits filed as inhibitors; A549 ARE-Fluc reporter, luciferase luminescence, 18-24 h; AID 504444; hit rate 2.1% among 360,000; also: potency is read from the fitted curve at half-maximal effect; % is scaled to controls: 0 for no effect and ±100 for the full control effect; nearly all actives have a fitted effect of over 60% in size
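Concentration-response testing used A549 ARE_Fluc cells at 5000 cells/well. Following an 18-24 h compound incubation, viability was read by fluorescence (Ex 405/Em 525) and luciferase output by luminescence.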
ClpP mod: qHTS Assay for Activators of ClpP; ATP-dependent Clp protease proteolytic subunit (Bacillus subtilis (strain 168)), P80244; purified B. subtilis ClpP, FRET peptide cleavage, 20 min; Potency, µM (highest dose often 57.5 µM), for inactives: top-dose activity change, negative = active; hit rate 1.9% among 340,000; active = well fitted falling curve with a large enough effect; inconclusive = small, poorly fitted or top-dose-only effect; inactive = no such curve, though single readings can be large or run the other way; also: potency is read from the fitted curve at half-maximal effect; the source files actives as falling curves though it sought activators and does not explain the sign; nearly all actives have a fitted effect of over 65% in size
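FRET quenching reversal measured ClpP activation: 10 microg/mL B. subtilis ClpP at pH 8 with the FRET-FV decapeptide, read at 430 nm after 320 nm excitation. The 20-min minus 0-min signal was scaled between DMSO/no-enzyme wells and ADEP (5.8 microM final).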
miR-21 reporter: miR-21 reporter, rising signal; HeLa miR-21 FLuc reporter, luciferase, 48 h; Potency, µM (doses to about 38.3 µM), for inactives: at the highest dose reporter change, positive = more light; 340,000 tested, under 10 active; AID 2288; active = well fitted rising curve with a large enough effect; inconclusive = small, poorly fitted or top-dose-only effect; inactive = no such curve, though single readings can be large or run the other way;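 further: % of control where 0% means no effect; miR-21 action dims this reporter so a rising signal means less miR-21 action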
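HeLa cells stably expressing CMV-driven firefly luciferase with a downstream miR-21 binding sequence, endogenously expressing miR-21, were treated with titrations (up to about 40uM final) for 48 hours at 37 degree Celsius. Luciferase luminescence was read after lysis.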
FLuc enzyme inh: firefly luciferase inhibition, Nrf2 hit validation; shares compounds with Nrf2 inh; purified firefly luciferase, luminescence inhibition; Potency, µM (series often up to 57.5 µM), inactives show at the top dose activity change, negative = inhibition, usual class: inhibitors; hit rate 4% among 1,400; AID 720522; also: potency is read from the fitted curve at half-maximal effect; % is scaled to controls: 0 for no effect and ±100 for the full control effect; nearly all actives have a fitted effect of over 65% in size
A549 tox-2: A549 cytotoxicity, Nrf2 inhibitor counterscreen; shares compounds with Nrf2 inh; A549 ARE-Fluc cells, cytotoxicity counterscreen; Potency, µM (top dose mostly 46.1 µM), without a hit: top-dose activity change, negative = cytotoxicity, most hits filed as inhibitors; hit rate 2% among 1,400; AID 720523;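 also: potency is read from the fitted curve at half-maximal effect; cells exposed to compounds for 18 to 24 hours; % is scaled to controls: 0 for no effect and ±100 for the full control effect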
Nrf2 ARE inh: reduces Nrf2 ARE reporter signal in A549 cells; shares compounds with Nrf2 inh; A549 ARE-firefly luciferase reporter, luminescence; Potency, µM (highest dose often 46.1 µM), inactives show top-dose activity change, negative = inhibition, actives largely listed as inhibitors; hit rate 74% among 1,400; AID 720524; also: potency is read from the fitted curve at half-maximal effect; % is scaled to controls: 0 for no effect and ±100 for the full control effect; nearly all actives have a fitted effect of over 65% in size
Numbers without * were called inactive; u = inconclusive; x = no result given; [ ] = another dose, or the depositor's remark. Unless noted, calls follow the shape of the dose curve; as a rule, active = well fitted curve in the direction sought with a large enough effect; inconclusive = small, poorly fitted or top-dose-only effect, or another doubt; inactive = no such curve, though single readings can be large; an effect the other way counts as inactive or inconclusive.

SMILES	Nrf2 ARE act	TCR activator	A549 tox-1	Nrf2 inh	ClpP mod	miR-21 reporter	FLuc enzyme inh	A549 tox-2	Nrf2 ARE inh
Cc1c(C(=O)N2CCCCC2)oc2ccc(S(=O)(=O)N3CC(C)CC(C)C3)cc12 (centres undefined)	2%	0%	-12%	9.2µM*	-19%	22%	-1%	-14%	9.2µM*
CCOC(=O)N1CCN(C(=O)c2oc3ccc(S(=O)(=O)N4CCCCC4)cc3c2C)CC1	-1%	2%	3%	u	-1%	9%	x	x	x
Cc1ccc(-n2c(SCC(=O)N3CCCCC3)nc(O)c(Cc3ccccc3)c2=O)cc1	-1%	7%	0%	-14%	-3%	0%	x	x	x
O=C(CSc1nnc(C2CC2)n1C1CC1)Nc1cccc(Br)c1	0%	-1%	6%	-13%	0%	x	x	x	x
Cn1c(-c2ccc3ccccc3n2)[n+](C)c2ccccc21	2%	3%	-21%	u	x	-6%	x	x	x
CN(C)c1ccc(-c2n(C)c3ccccc3[n+]2C)cc1	5%	-4%	-18%	0.29µM*	-6%	26%	-24%	-16%	u
Cn1c(-c2ccccn2)[n+](C)c2ccccc21	-1%	13%	-8%	5.2µM*	-15%	-1%	0%	-1%	10µM*
Cn1c(-c2cccc([N+](=O)[O-])c2)[n+](C)c2ccccc21	-1%	6%	-11%	u	1%	23%	x	x	x
Cc1ccccc1OCC(=O)Nc1ccc(C(=O)OCc2cc(=O)n3ccsc3n2)cc1	0%	x	17%	x	-9%	-12%	x	x	x
O=C(/C=C/c1ccc(S(=O)(=O)N2CCOCC2)cc1)N1CCN(c2ccccc2)CC1	-1%	5%	1%	5.8µM*	-2%	5%	1%	0%	u
COc1ccc(-c2c[n+]3c(n2-c2ccccc2)CCCCC3)cc1	0%	4%[46.1 µM]	-11%	u	1%	u	x	x	x
CCOc1ccc(-n2c(-c3ccc(Br)cc3)c[n+]3c2CCCCC3)cc1	1%	4%	-14%	u	x	u	x	x	x
CCOc1ccc(-n2c(-c3ccccc3)c[n+]3c2CCC3)cc1	0%	-14%	-6%	2.3µM*	-1%	u	1%	-10%	16µM*
CCOc1ccc(-n2c(-c3ccc(OC)cc3)c[n+]3c2CCCCC3)cc1	4%	3%[46.1 µM]	u	2.6µM*	x	u	2%	-19%	3.7µM*
COc1ccc(CCNC(=O)c2c(C)oc3ncn(CC(C)C)c(=O)c23)cc1OC	1%	x	-4%	-26%	-2%	-30%	x	x	x
Cc1ccc(NC(=O)COc2cccnc2[N+](=O)[O-])cc1S(=O)(=O)N1CCCCC1	1%[9.22 µM]	2%[46.1 µM]	u	7.3µM*	1%	10%	-17%	-10%	u
Cc1ccc(NC(=O)COc2ccccc2C#N)cc1S(=O)(=O)N1CCCCCC1	4%	-1%	-17%	2%	-1%	x	x	x	x
CSc1ccc(/C=C2\C=Cc3ccccc32)cc1	x	x	x	x	0%	x	x	x	x
Cc1ccc(NC(=O)CCNS(=O)(=O)c2ccc3c(c2)CCC(=O)N3)cc1C	0%	-2%	-6%	-4%	-2%	-1%	x	x	x
